This passage reports inhibition results from ChEMBL document CHEMBL3046299, “Neonicotinoid substituents forming a water bridge at the nicotinic acetylcholine receptor” (J Agric Food Chem, 2009).

This assay concerns Drosophila melanogaster. Kind of assay: Displacement of [3H]IMI from nicotinic acetylcholine receptor in Drosophila melanogaster brain at Ki concentration. For orientation: Loss of bound radioactivity is the signal in a displacement assay; it reports binding, not function.

The term inhibition denotes the change of the read-out against control, counted positive when it falls. With `O=[N+]([O-])N=C1NCCN1`, the inhibition stood at 0%.
